This note sets out measurements from patent US9708318B2, “Bicyclic heterocycles as FGFR4 inhibitors” (Incyte Corporation, priority 2015, dated 2017).

Protein sequences, listed by entry. Tags and fused reporters are not part of them. Residues count along the entry.
UniProt P21802, 22-821: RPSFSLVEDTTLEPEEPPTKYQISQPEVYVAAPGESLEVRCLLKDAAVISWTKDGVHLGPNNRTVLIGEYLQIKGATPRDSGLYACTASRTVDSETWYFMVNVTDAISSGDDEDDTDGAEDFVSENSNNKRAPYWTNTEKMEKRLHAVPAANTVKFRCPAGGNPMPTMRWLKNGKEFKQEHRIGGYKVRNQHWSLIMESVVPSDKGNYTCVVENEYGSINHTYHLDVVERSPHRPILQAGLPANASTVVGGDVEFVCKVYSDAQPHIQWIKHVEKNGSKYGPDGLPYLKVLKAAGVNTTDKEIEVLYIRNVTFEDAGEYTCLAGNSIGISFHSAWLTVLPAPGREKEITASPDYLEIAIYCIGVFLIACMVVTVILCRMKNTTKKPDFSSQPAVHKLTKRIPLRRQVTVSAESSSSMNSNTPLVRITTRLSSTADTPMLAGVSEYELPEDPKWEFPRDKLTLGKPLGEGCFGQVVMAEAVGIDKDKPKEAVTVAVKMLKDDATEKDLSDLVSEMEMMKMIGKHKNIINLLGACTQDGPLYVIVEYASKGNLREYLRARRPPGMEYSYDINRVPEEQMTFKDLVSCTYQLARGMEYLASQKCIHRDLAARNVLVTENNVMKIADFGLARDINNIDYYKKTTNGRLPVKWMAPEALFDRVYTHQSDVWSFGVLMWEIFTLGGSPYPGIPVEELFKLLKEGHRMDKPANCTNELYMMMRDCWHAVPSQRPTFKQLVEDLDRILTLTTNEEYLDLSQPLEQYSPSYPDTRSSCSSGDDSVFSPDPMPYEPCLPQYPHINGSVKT
UniProt P22607, 23-806: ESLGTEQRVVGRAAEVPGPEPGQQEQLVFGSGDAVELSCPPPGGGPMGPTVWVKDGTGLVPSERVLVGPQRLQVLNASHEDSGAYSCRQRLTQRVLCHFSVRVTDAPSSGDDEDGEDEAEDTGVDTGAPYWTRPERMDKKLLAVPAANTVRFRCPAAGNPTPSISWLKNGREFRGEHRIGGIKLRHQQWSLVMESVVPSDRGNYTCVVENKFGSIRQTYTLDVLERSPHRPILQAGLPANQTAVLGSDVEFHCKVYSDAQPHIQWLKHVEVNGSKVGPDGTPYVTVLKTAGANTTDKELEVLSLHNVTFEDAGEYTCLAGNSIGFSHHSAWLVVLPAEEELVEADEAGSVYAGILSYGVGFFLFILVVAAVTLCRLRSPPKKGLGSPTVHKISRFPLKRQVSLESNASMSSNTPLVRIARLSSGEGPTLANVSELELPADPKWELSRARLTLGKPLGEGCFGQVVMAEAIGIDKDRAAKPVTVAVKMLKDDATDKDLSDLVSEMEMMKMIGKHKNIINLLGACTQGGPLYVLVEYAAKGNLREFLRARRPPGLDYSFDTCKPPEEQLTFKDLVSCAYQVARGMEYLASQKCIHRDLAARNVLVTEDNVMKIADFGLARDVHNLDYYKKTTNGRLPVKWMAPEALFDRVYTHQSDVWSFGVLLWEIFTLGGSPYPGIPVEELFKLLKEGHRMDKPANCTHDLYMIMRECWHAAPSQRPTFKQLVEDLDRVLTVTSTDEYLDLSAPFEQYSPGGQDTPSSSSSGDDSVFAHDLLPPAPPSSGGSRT
UniProt P11362, 22-822: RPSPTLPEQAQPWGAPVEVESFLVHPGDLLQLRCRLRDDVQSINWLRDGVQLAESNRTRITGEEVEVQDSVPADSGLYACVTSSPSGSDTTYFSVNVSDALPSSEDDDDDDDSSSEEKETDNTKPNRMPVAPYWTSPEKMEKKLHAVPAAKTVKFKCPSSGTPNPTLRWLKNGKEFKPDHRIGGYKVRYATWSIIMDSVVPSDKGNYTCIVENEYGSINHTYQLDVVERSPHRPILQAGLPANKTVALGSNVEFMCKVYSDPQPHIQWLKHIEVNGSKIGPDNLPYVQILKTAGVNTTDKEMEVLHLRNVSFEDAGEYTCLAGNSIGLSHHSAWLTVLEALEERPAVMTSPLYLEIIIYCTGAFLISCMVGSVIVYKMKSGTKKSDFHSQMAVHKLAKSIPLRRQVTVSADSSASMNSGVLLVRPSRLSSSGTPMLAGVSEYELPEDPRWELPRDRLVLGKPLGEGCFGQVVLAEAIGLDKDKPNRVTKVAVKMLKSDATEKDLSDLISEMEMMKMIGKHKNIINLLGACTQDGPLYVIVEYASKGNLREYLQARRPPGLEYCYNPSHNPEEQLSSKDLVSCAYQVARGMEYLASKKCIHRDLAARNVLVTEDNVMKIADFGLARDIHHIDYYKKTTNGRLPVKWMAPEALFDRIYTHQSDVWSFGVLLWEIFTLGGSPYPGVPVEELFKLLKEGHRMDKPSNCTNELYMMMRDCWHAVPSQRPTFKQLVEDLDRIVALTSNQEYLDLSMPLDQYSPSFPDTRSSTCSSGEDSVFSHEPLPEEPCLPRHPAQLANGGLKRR
UniProt P22455, 22-802: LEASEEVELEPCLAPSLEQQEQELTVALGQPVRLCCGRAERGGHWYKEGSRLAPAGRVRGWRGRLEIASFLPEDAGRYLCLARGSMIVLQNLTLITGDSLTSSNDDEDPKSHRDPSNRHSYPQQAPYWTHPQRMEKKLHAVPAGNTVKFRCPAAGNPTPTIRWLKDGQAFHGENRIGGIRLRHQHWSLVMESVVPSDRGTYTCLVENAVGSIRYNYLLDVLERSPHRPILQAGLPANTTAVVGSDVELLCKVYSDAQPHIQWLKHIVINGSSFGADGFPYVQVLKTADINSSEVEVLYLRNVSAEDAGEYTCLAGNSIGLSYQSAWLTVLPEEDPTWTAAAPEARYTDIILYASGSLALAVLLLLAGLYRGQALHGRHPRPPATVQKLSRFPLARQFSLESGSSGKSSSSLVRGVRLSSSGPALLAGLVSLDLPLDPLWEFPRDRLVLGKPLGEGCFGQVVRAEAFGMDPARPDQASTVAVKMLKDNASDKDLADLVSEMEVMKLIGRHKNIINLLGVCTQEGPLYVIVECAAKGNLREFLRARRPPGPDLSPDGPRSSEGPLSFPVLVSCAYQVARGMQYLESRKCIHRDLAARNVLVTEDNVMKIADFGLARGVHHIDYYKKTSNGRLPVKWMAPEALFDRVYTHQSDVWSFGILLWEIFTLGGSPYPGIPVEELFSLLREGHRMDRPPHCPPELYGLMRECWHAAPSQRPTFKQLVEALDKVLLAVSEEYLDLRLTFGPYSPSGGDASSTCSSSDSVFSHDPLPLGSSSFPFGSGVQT

Like-named read-outs stand apart in the source and are kept apart here.

The target of assay [1] is FGFR2 (Homo sapiens (Human), UniProt P21802). As to the kind of experiment: FGFR Enzymatic Assay (FRET peptide phosphorylation), FGFR2. The assay is classed as biochemical. To be noted: pre-incubated for 4 hours. On the procedure: (§1) The inhibitor potency of the exemplified compounds was measured in an enzyme assay that measures peptide phosphorylation using FRET measurements to detect product formation. Inhibitors were serially diluted in DMSO and a volume of 0.5 μL was transferred to the wells of a 384-well plate.
(§2) The enzymes were purchased from Millipore or Invitrogen.
(§3) GraphPad prism3 was used to analyze the data.

Assay [2] has as its target FGFR3 enzyme (Homo sapiens (Human), UniProt P22607). Kind of assay: FGFR Enzymatic Assay (FRET peptide phosphorylation), FGFR3. To be noted: pre-incubated for 4 hours. It is filed as biochemical. How it is done:
as §1, §3

Assay [3] deals with FGFR1 (Homo sapiens (Human), UniProt P11362). As to the kind of experiment: FGFR Enzymatic Assay (FRET peptide phosphorylation), FGFR1.
The target of assay [4] is FGFR4 (Homo sapiens (Human), UniProt P22455). Kind of assay: FGFR Enzymatic Assay (FRET peptide phosphorylation), FGFR4. To be noted: pre-incubated for 5 to 10 minutes. It is filed as biochemical. On the procedure:
as §1, §2, §3

The mark [5] stands for this setting: FGFR1 IC50 (nM), pre-incubated for 5 to 10 minutes.

For the compound `CCN1C(=O)N(c2c(F)c(OC)cc(OC)c2F)Cc2cnc(-c3ccc(C(=O)NC)nc3)cc21` [Example 24, 5-(3-(2,6-difluoro-3,5-dimethoxyphenyl)-1-ethyl-2-oxo-1,2,3,4-tetrahydropyrido[4,3-d]pyrimidin-7-yl)-N-methylpicolinamide], the IC50 in assay [1] and in assay [2] was below 10 nM throughout.

`CCN1C(=O)N(c2cc(OC)cc(C(=O)NC)c2F)Cc2cnc(-c3ccc(C4(C#N)CCC4)nc3)cc21` [Example 28, 3-(7-(6-(1-cyanocyclobutyl)pyridin-3-yl)-1-ethyl-2-oxo-1,2-dihydropyrido[4,3-d]pyrimidin-3(4H)-yl)-2-fluoro-5-methoxy-N-methylbenzamide]: in assay [2] (FGFR3 selectivity), the “FGFR1/FGFR3 IC50 ratio” value is above 10 and the “FGFR4/FGFR3 IC50 ratio” value was above 25.

Consider `COc1cc(OC)c(F)c(N2Cc3cnc(-c4cn(C)nc4C)cc3N(C)C2=O)c1F` [Example 76, 3-(2,6-difluoro-3,5-dimethoxyphenyl)-7-(1,3-dimethyl-1H-pyrazol-4-yl)-1-methyl-3,4-dihydropyrido[4,3-d]pyrimidin-2(1H)-one], for which the IC50 in assay [2] lay in the range of 10 to 30 nM.

In assay [2], `COc1cc(OC)c(F)c(N2Cc3cnc(-c4cn(C)nc4C)cc3N(Cc3cnco3)C2=O)c1F` [Example 80, 3-(2,6-difluoro-3,5-dimethoxyphenyl)-7-(1,3-dimethyl-1H-pyrazol-4-yl)-1-(oxazol-5-ylmethyl)-3,4-dihydropyrido[4,3-d]pyrimidin-2(1H)-one] gave a 50% inhibitory concentration (IC50) below 10 nM.

For `COc1cc(OC)c(F)c(N2Cc3cnc(-c4cn(C)nc4C)cc3N(Cc3cn(C)nc3C)C2=O)c1F` [Example 101, 3-(2,6-difluoro-3,5-dimethoxyphenyl)-7-(1,3-dimethyl-1H-pyrazol-4-yl)-1-((1,3-dimethyl-1H-pyrazol-4-yl)methyl)-3,4-dihydropyrido[4,3-d]pyrimidin-2(1H)-one], the IC50 in assay [3] (read-out: FGFR1 IC50, pre-incubated for 4 hours) was below 10 nM.

As for `COc1cc(OC)c(F)c(N2Cc3cnc(-c4cn(C)nc4C)cc3N(c3ccc4c(c3)C(=O)N(C)C4)C2=O)c1F` [Example 120, 3-(2,6-difluoro-3,5-dimethoxyphenyl)-7-(1,3-dimethyl-1H-pyrazol-4-yl)-1-(2-methyl-3-oxoisoindolin-5-yl)-3,4-dihydropyrido[4,3-d]pyrimidin-2(1H)-one], the concentration for half-maximal inhibition (IC50) in assay [4] and in assay [3] (setting [5]) was 30 to 200 nM throughout.

Turning to `COc1cc(OC)c(F)c(N2Cc3cnc(-c4ccn(C)n4)cc3N(c3ccc(C#N)cc3)C2=O)c1F` [Example 142, 4-(3-(2,6-difluoro-3,5-dimethoxyphenyl)-7-(1-methyl-1H-pyrazol-3-yl)-2-oxo-3,4-dihydropyrido[4,3-d]pyrimidin-1(2H)-yl)benzonitrile], the IC50 in assay [4] and in assay [3] (setting [5]) was 30 to 200 nM in each case.

With `COc1cc(OC)c(F)c(N2Cc3cnc(-c4cnn(C)c4)cc3N(c3ccc(C#N)cc3)C2=O)c1F` [Example 144, 4-(3-(2,6-difluoro-3,5-dimethoxyphenyl)-7-(1-methyl-1H-pyrazol-4-yl)-2-oxo-3,4-dihydropyrido[4,3-d]pyrimidin-1(2H)-yl)benzonitrile], the IC50 in assay [4] and in assay [3] (setting [5]) was 30 to 200 nM throughout.
